{
  "sequences": {"note": "Protein sequences, listed by entry. Tags and fused reporters are not part of them. Residues count along the entry.", "UniProt P28335, 33-458": "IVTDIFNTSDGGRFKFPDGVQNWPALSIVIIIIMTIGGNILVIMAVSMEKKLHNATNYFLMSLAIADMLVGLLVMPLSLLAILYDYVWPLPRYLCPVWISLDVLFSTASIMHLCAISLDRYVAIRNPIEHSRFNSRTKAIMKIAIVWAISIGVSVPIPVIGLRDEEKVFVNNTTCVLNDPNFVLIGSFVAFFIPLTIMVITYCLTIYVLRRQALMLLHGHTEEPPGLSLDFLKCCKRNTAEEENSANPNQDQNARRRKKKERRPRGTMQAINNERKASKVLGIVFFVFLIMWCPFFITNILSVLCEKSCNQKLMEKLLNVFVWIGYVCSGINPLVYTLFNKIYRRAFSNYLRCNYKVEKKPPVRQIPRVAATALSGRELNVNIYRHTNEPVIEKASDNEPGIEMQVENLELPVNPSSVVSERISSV", "UniProt P28223, whole entry": "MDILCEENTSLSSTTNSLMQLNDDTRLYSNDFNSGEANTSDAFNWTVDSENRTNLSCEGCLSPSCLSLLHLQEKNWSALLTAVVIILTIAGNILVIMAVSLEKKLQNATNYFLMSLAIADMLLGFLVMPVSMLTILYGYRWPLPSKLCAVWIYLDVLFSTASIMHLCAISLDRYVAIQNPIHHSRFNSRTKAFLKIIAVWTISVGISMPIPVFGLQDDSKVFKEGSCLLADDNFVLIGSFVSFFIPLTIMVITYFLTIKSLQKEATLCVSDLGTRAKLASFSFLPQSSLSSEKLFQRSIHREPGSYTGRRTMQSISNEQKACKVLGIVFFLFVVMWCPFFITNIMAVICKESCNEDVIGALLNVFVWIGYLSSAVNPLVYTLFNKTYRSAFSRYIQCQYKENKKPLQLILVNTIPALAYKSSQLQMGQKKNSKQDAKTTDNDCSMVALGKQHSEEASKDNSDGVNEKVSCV"},
  "source": "patent EP0572863A1",
  "about": "(dated 1993)",
  "key": {"[1]": {"molecular_target": "5HT1C-Rezeptor (Homo sapiens, UniProt P28335)", "experiment": "3H-Mesulergin binding test (test method c)"}, "[2]": {"molecular_target": "5HT₂-Rezeptor (Homo sapiens, UniProt P28223)", "experiment": "3H-Metanserin binding test (test method d)"}},
  "data": [
    {"smiles": "Clc1cccc(N2CCNCC2)c1", "note": "[mCPP, reference compound]", "values": [
      {"measurement": "IC50", "setting": "[1]", "value": 0.053, "unit": "µM"},
      {"measurement": "IC50", "setting": "[2]", "value": 0.319, "unit": "µM"}
    ]}
  ]
}
